A word on the Kd: it is the constant that tells how readily two partners part at equilibrium. Usually Ki stands for a dissociation constant, usually derived from enzyme kinetics or from competition with a known ligand.

By UniProt entry, the sequences of proteins in these tests, tags left out.
UniProt O43613, whole entry: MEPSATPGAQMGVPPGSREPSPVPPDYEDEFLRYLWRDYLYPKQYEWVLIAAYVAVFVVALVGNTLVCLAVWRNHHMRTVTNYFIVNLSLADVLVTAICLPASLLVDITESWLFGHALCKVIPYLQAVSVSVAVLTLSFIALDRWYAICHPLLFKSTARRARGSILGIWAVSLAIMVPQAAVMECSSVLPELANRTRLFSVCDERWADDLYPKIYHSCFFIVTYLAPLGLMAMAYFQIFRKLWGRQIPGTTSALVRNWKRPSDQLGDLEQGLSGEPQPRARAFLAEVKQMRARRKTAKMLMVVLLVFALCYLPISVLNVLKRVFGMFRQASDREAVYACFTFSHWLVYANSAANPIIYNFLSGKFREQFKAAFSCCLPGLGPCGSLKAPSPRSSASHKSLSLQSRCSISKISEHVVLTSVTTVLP
UniProt O43614, whole entry: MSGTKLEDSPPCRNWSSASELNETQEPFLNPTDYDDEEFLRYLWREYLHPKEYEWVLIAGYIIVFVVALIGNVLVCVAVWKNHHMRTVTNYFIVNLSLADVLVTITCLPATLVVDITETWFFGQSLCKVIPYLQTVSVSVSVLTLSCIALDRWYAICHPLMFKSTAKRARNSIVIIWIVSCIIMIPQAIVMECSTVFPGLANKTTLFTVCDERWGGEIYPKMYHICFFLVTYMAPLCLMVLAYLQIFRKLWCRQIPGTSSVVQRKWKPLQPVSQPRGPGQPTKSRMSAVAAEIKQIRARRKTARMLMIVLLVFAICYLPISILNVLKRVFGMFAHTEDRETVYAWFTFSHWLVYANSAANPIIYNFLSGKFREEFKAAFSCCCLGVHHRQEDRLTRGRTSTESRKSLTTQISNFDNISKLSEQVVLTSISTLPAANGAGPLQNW

Test [1] concerns the target T1, hOx1R (Homo sapiens (Human), UniProt O43613). Description: Radioligand binding assay, [3H]-SB649868, hOx1R. Particulars: read-out: Binding hOx1R Kd; radioligand [3H]-SB649868, competition.
Test [2] addresses T2, hOx2R (Homo sapiens (Human), UniProt O43614). The experiment in a line: Radioligand binding assay, [3H]-SB649868, hOx2R. Particulars: read-out: Binding hOx2R Kd; radioligand [3H]-SB649868, competition.
In test [3] the target is T1, hOx1R. The experiment in a line: Calcium accumulation in cells (FLIPR), hOx1R. Particulars: read-out: FLIPR hOx1R Ki; inhibition of orexin A induced calcium accumulation, Cheng and Prusoff correction. It is filed as cell-based.
For test [4], the target named is T2, hOx2R. The experiment in a line: Calcium accumulation in cells (FLIPR), hOx2R. It is filed as cell-based. Particulars: read-out: FLIPR hOx2R Ki; inhibition of orexin A induced calcium accumulation, Cheng and Prusoff correction.

Regarding `O=C1N(Cc2c[nH]c3ccccc23)CCCC12CCN(c1nccc(-n3cccn3)n1)CC2`, the Kd on hOx1R [1] was determined as 143 nM; at hOx2R [2] it was 41 nM. Further, the values for the inhibitory constant (Ki) on hOx1R [3] and on hOx2R [4] were 259 nM and 32 nM, respectively.

Regarding `O=C1N(Cc2c[nH]c3ccccc23)CCCC12CCN(c1nccc3ccccc13)CC2`, the Ki at hOx1R [3] turned out to be 1240 nM; at hOx2R [4], 564 nM.

The record behind these values is patent US8530648B2, “Diaza-spiro[5.5]undecanes” (Novartis AG, priority 2009, dated 2013).
